Test results published in patent US11312713B2, “Imidazo[4,5-C]quinoline derivatives as LRRK2 inhibitors” (Pfizer Inc., priority 2017, dated 2022).
Read-outs that look alike come from different tables or passages of the source.

Key:
[1] = biological target: LRRK2, WT (GST-tagged truncated LRRK2) (Homo sapiens, UniProt Q5S007); assay: LRRK2 kinase assay (LanthaScreen), wild type; format: biochemical
Experimental: (§1) LRRK2 kinase activity was measured using Lantha Screen technology from Invitrogen. GST-tagged truncated LRRK2 from Invitrogen (Cat #PV4874) was incubated with a fluorescein-labeled peptide substrate based upon ezrin/radixin/moesin (ERM), also known as LRRKtide (Invitrogen cat #PR8976A), in the presence of a dose response of compound. Upon completion, the assay was stopped and detected with a terbium labeled anti-phospho-ERM antibody (Invitrogen, cat #PR8975A). […] Using Echo acoustic dispensing, 60 nL of compound was transferred to a low volume Corning 384-well assay plate. 3 μL of a working solution of substrate (200 nM LRRKtide, 2 mM ATP) prepared in assay buffer (50 mM HEPES, pH 7.5, 3 mM MgCl2, with 2 mM DTT and 0.01% Brij35 added fresh) was added to the 60 nL compound assay plate. The kinase reaction was started with 3 μL of a working solution of LRRK2 enzyme at a concentration of 4 μg/m L. The final reaction concentrations were 100 nM LRRKtide, 1 mM ATP, 2 μg/mL LRRK2 enzyme and a compound dose response with a top dose of 3 μM. The reaction was allowed to progress at room temperature for 30 minutes and then stopped with the addition of 6 μL of detection buffer (20 mM Tris pH 7.6, 0.01% NP-40, 6 mM EDTA with 2 nM terbium labeled antiphospho-ERM). […] All final concentrations of substrate ATP and enzyme were the same.

mutant G2019S LRRK2 = mutant G2019S LRRK2 (Homo sapiens (Human), UniProt Q5S007, G2019S); assay: LRRK2 kinase assay (LanthaScreen), G2019S mutant; format: biochemical; details: LRRKtide substrate
Experimental: as §1

[2] = wild type LRRK2, LanthaScreen, LRRKtide substrate

SMILES: COc1cnn(Cc2nc3cnc4ccc(Cl)cc4c3n2C2CCOCC2(F)F)c1 (single isomer, unassigned) [Example 27, 8-Chloro-1-(3,3-difluorotetrahydro-2H-pyran-4-yl)-2-[(4-methoxy-1H-pyrazol-1-yl)methyl]-1H-imidazo[4,5-c]quinoline]
- IC50 [1]: 29.1 nM
- IC50 (mutant G2019S LRRK2): 20.3 nM

SMILES: Cc1cc(Cc2nc3cnc4ccc(Cl)cc4c3n2C2CCOCC2(F)F)no1 (stereo not shown) [Example 60, 8-chloro-1-(3,3-difluorotetrahydro-2H-pyran-4-yl)-2-[(5-methyl-1,2-oxazol-3-yl)methyl]-1H-imidazo[4,5-c]quinoline]
- IC50 [1, 2]: 11.4 nM
- IC50 (mutant G2019S LRRK2): 16.3 nM

SMILES: Cc1cn(Cc2nc3cnc4ccc(F)cc4c3n2C2CN(C)CC2(F)F)nn1 (single isomer, unassigned) [Example 19, 1-(4,4-Difluoro-1-methylpyrrolidin-3-yl)-8-fluoro-2-[(4-methyl-1H-1,2,3-triazol-1-yl)methyl]-1H-imidazo[4,5-c]quinoline]
- IC50 [1]: 5.43 nM
- IC50 (mutant G2019S LRRK2): 8.12 nM

SMILES: CN1CC(n2c(Cn3cncn3)nc3cnc4ccc(Cl)cc4c32)C(F)(F)C1 (single isomer, unassigned) [Example 25, 8-Chloro-1-(4,4-difluoro-1-methylpyrrolidin-3-yl)-2-(1H-1,2,4-triazol-1-ylmethyl)-1H-imidazo[4,5-c]quinoline]
- IC50 [1]: 318 nM

SMILES: COc1cnn(Cc2nc3cnc4ccc(Cl)cc4c3n2C2CCOCC2(F)F)c1 (single isomer, unassigned) [Example 26, 8-Chloro-1-(3,3-difluorotetrahydro-2H-pyran-4-yl)-2-[(4-methoxy-1H-pyrazol-1-yl)methyl]-1H-imidazo[4,5-c]quinoline]
- IC50 [1]: 5.9 nM

SMILES: COCc1cn(Cc2nc3cnc4ccc(Cl)cc4c3n2C2CN(C)CC2(F)F)nn1 (single isomer, unassigned) [Example 23, 8-Chloro-1-(4,4-difluoro-1-methylpyrrolidin-3-yl)-2-{[4-(methoxymethyl)-1H-1,2,3-triazol-1-yl]methyl}-1H-imidazo[4,5-c]quinoline]
- IC50 [1]: 2.35 nM
- IC50 (mutant G2019S LRRK2): 1.35 nM

SMILES: COCc1cn(Cc2nc3cnc4ccc(Cl)cc4c3n2C2CN(C)CC2(F)F)nn1 (stereo not shown) [Example 44, 8-chloro-1-(4,4-difluoro-1-methylpyrrolidin-3-yl)-2-{[4-(methoxymethyl)-1H-1,2,3-triazol-1-yl]methyl}-1H-imidazo[4,5-c]quinoline]
- IC50 [1, 2]: 6.02 nM
- IC50 (mutant G2019S LRRK2): 4.53 nM

SMILES: CN1CC(n2c(Cn3cncn3)nc3cnc4ccc(Cl)cc4c32)C(F)(F)C1 (stereo not shown) [Example 43, 8-chloro-1-(4,4-difluoro-1-methylpyrrolidin-3-yl)-2-(1H-1,2,4-triazol-1-ylmethyl)-1H-imidazo[4,5-c]quinoline]
- IC50 [1, 2]: 5.87 nM
- IC50 (mutant G2019S LRRK2): 8.53 nM

SMILES: COc1cnn(Cc2nc3cnc4ccc(C(F)F)cc4c3n2[C@@H]2CCO[C@H](C)C2)c1 [Example 12, 8-(Difluoromethyl)-2-[(4-methoxy-1H-pyrazol-1-yl)methyl]-1-[(2R,4R)-2-methyltetrahydro-2H-pyran-4-yl]-1H-imidazo[4,5-c]quinoline]
- IC50 [1]: 8.77 nM
- IC50 (mutant G2019S LRRK2): 4.38 nM

SMILES: Cc1cnc(Cc2nc3cnc4ccc(C(F)F)cc4c3n2[C@@H]2CCO[C@H](C)C2)cn1 [Example 13, 8-(Difluoromethyl)-2-[(5-methylpyrazin-2-yl)methyl]-1-[(2R,4R)-2-methyltetrahydro-2H-pyran-4-yl]-1H-imidazo[4,5-c]quinoline]
- IC50 [1]: 9.72 nM
- IC50 (mutant G2019S LRRK2): 7.77 nM

SMILES: CN1CC(n2c(Cn3cncn3)nc3cnc4ccc(F)cc4c32)C(F)(F)C1 (single isomer, unassigned) [Example 17, 1-(4,4-Difluoro-1-methylpyrrolidin-3-yl)-8-fluoro-2-(1H-1,2,4-triazol-1-ylmethyl)-1H-imidazo[4,5-c]quinoline]
- IC50 [1]: 6.49 nM
- IC50 (mutant G2019S LRRK2): 7.57 nM

SMILES: Cc1cnc(Cc2nc3cnc4ccc(Cl)cc4c3n2C2CCOCC2(F)F)cn1 (single isomer, unassigned) [Example 7, 8-Chloro-1-(3,3-difluorotetrahydro-2H-pyran-4-yl)-2-[(5-methylpyrazin-2-yl)methyl]-1H-imidazo[4,5-c]quinoline]
- IC50 [1]: 47.9 nM
- IC50 (mutant G2019S LRRK2): 39.7 nM

SMILES: Cc1cc(Cc2nc3cnc4ccc(Cl)cc4c3n2[C@H]2CCOCC2(F)F)no1 [Example 5, 8-Chloro-1-[(4S)-3,3-difluorotetrahydro-2H-pyran-4-yl]-2-[(5-methyl-1,2-oxazol-3-yl)methyl]-1H-imidazo[4,5-c]quinoline]
- IC50 [1]: 14.6 nM
- IC50 (mutant G2019S LRRK2): 9.41 nM

SMILES: CN1CC(n2c(Cn3cncn3)nc3cnc4ccc(Cl)cc4c32)C(F)(F)C1 (single isomer, unassigned) [Example 24, 8-Chloro-1-(4,4-difluoro-1-methylpyrrolidin-3-yl)-2-(1H-1,2,4-triazol-1-ylmethyl)-1H-imidazo[4,5-c]quinoline]
- IC50 [1]: 2.77 nM
- IC50 (mutant G2019S LRRK2): 1.19 nM

SMILES: Cc1cnc(Cc2nc3cnc4ccc(Cl)cc4c3n2C2CCOCC2(F)F)cn1 (single isomer, unassigned) [Example 8, 8-Chloro-1-(3,3-difluorotetrahydro-2H-pyran-4-yl)-2-[(5-methylpyrazin-2-yl)methyl]-1H-imidazo[4,5-c]quinoline]
- IC50 [1]: 11.8 nM
- IC50 (mutant G2019S LRRK2): 11.6 nM

SMILES: Cc1cc(Cc2nc3cnc4ccc(Cl)cc4c3n2C2CCOCC2(F)F)no1 (stereo not drawn) [enantiomer of Example 60, 8-chloro-1-(3,3-difluorotetrahydro-2H-pyran-4-yl)-2-[(5-methyl-1,2-oxazol-3-yl)methyl]-1H-imidazo[4,5-c]quinoline]
- IC50 ([1]; LanthaScreen, LRRKtide substrate, 1 mM ATP): 42.2 nM

SMILES: COCc1cn(Cc2nc3cnc4ccc(Cl)cc4c3n2C2CN(C)CC2(F)F)nn1 (single isomer, unassigned) [Example 22, 8-Chloro-1-(4,4-difluoro-1-methylpyrrolidin-3-yl)-2-{[4-(methoxymethyl)-1H-1,2,3-triazol-1-yl]methyl}-1H-imidazo[4,5-c]quinoline]
- IC50 [1]: 138 nM

SMILES: Cc1cn(Cc2nc3cnc4ccc(F)cc4c3n2C2CN(C)CC2(F)F)nn1 (single isomer, unassigned) [Example 18, 1-(4,4-Difluoro-1-methylpyrrolidin-3-yl)-8-fluoro-2-[(4-methyl-1H-1,2,3-triazol-1-yl)methyl]-1H-imidazo[4,5-c]quinoline]
- IC50 [1]: 263 nM

SMILES: Cc1cc(Cc2nc3cnc4ccc(C#N)cc4c3n2[C@@H]2CCN(C)C2)ncn1 [Example 6, 2-[(6-Methylpyrimidin-4-yl)methyl]-1-[(3R)-1-methylpyrrolidin-3-yl]-1H-imidazo[4,5-c] quinoline-8-carbonitrile]
- IC50 [1]: 6.39 nM
- IC50 (mutant G2019S LRRK2): 11.3 nM

SMILES: Cc1cnc(Cc2nc3cnc4ccc(F)cc4c3n2C2CN(C)CC2(F)F)cn1 (single isomer, unassigned) [Example 21, 1-(4,4-Difluoro-1-methylpyrrolidin-3-yl)-8-fluoro-2-[(5-methylpyrazin-2-yl)methyl]-1H-imidazo[4,5-c]quinoline]
- IC50 [1]: 235 nM
